Measured values: patent US20220193133A1 (CENTURY THERAPEUTICS, published 2022)

Target: 9G8_M_GFP CAR
Test: flow cytometry, CAR Jurkat cells + 10 ug/mL biotinylated lysozyme, streptavidin-APC, % positive cells

binding result: no binding (tested: 10 ug/mL)
B1: human lysozyme (enzyme, UniProt P61626 19-148, looked up)
chain: KVFERCELARTLKRLGMDGYRGISLANWMCLAKWESGYNTRATNYNAGDRSTDYGIFQINSRYWCNDGKTPGAVNACHLSCSALLQDNIADAVACAKRVVRDPQGIRAWVAWRNRCQNRDVRQYVQGCGV
modifications: biotinylated
notes: also called human lysozyme protein
